Read-outs that look alike come from different tables or passages of the source.
Assays:
PARP15 = target: T1, PARP15 (Homo sapiens, UniProt Q460N3); assay: biochemical
T1 sequence (Q460N3 1-678): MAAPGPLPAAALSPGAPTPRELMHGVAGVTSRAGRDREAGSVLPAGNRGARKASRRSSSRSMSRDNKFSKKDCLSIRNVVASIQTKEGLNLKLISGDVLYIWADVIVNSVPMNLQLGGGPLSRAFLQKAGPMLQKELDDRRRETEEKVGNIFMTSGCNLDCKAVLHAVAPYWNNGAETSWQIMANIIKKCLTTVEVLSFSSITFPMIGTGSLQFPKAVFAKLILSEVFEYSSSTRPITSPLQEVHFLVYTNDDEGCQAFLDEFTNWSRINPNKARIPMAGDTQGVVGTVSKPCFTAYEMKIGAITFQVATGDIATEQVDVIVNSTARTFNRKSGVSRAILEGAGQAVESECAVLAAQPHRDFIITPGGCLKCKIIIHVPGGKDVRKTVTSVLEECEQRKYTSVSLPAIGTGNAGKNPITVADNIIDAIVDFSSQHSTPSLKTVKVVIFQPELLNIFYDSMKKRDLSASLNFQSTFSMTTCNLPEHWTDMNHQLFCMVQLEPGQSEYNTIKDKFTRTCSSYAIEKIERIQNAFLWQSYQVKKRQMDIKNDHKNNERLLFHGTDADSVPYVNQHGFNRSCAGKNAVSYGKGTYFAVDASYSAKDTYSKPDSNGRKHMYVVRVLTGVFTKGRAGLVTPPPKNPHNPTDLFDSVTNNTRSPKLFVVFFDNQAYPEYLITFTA
Description: (§1) All starting materials, reagents, and solvents were purchased from common commercial suppliers and were used as such without further purification. […] Organic solutions were dried over anhydrous Na2SO4 and concentrated with rotary evaporator at low pressure. All the reactions were routinely checked by thin-layer chromatography (TLC) on silica gel 60F254 (Merck) and visualized by using UV and iodine. Flash chromatography separations were carried out on Merck silica gel 60 (mesh 230-400) or by using automated Buchi Reveleris X2-UV with column FP Ecoflex Si 12 g. Yields were of purified products and were not optimized. ^1HNMR spectra were recorded at 400 MHz (Bruker Avance DRX-400), while ^13CNMR spectra were recorded at 101 MHz (Bruker Avance DRX-400). Chemical shifts are given in ppm (δ) relative to TMS. […] Mating constant (J) are reported in Hz. The purity of the tested compounds was evaluated by HPLC analysis using Jasco LC-4000 instrument equipped with a UV-Visible Diode Array Jasco-MD4015 (Jasco Corporation, Tokyo, Japan), and XTerra MS C18 column, 5 μm×4.6 mm×150 mm (Waters Corporation, Massachusetts, USA). Chromatograms were analyzed by ChromNAV2.0 Chromatography Data System software. […] The peak retention time (ret. time) is given in minutes. […] 1-Isobutoxy-4-methoxy-2-nitrobenzene (113). Isobutyl alcohol (0.6 mL, 6.43 mmol) was added, under nitrogen atmosphere at 0° C., to a suspension of NaH (0.26 g, 6.43 mmol) in dry DMF. After 15 minutes, 1-fluoro-4-methoxy-2-nitrobenzene 112 (1 g, 5.84 mmol) was also added and the reaction mixture was stirred at 80° C. for 4 h. […] (2-Isobutoxy-5-methoxyphenyl)amine (114). Zn (1.57 g, 24 mmol) and NH4C1 (2.45 g, 40 mmol) were added to a solution of 113 (0.46 g, 2 mmol) in acetone/H2O (50 mL, ratio 5:1). The reaction mixture was stirred at 60° C. for 3 h and, then, it was filtered over celite. […] N-(2,5-diethoxyphenyl)thiourea (55). […] N-(2-isobutoxy-5-methoxyphenyl)thiourea (115). […] A solution of Br2 (0.2 mL, 3.3 mmol) in CHCl3 (5 mL) was slowly added to a suspension of 45 (0.6 g, 3.3 mmol) in CHCl3 (13 mL), at 0° C. The reaction mixture was stirred at r.t. for 4 h and, then, a 10% solution of Na2SO3 in water was added to the mixture. […] 4,7-Diethoxy-1,3-benzothiazol-2-amine (66). […] 4-Isobutoxy-7-methoxy-1,3-benzothiazol-2-amine (116).

Chains of the proteins cited; added tags and fusions are not shown. Lines headed by an entry give the natural chain unless they say otherwise; changes in a name come on top.
UniProt Q9UGN5: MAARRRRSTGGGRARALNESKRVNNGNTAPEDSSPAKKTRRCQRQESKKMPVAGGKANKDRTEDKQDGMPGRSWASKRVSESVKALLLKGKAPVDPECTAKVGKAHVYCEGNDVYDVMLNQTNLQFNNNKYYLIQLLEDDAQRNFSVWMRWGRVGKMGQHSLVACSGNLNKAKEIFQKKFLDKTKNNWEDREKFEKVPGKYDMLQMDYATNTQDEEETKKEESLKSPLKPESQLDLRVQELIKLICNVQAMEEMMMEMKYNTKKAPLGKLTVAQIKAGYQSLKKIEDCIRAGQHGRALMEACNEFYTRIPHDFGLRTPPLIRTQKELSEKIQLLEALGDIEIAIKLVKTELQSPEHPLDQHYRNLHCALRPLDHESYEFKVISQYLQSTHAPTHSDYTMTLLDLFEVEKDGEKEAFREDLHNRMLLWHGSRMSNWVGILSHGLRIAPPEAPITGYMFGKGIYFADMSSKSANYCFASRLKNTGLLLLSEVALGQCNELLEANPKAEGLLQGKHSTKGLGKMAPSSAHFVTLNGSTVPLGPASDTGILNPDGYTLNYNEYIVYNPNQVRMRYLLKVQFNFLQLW

PARP10 = target: T2, PARP10 (Homo sapiens, UniProt Q53GL7); assay: Activity assay measuring NAD+ consumption, PARP10 (Tables 1-3); format: biochemical
T2 construct: made in house
T2 sequence (Q53GL7 1-1025): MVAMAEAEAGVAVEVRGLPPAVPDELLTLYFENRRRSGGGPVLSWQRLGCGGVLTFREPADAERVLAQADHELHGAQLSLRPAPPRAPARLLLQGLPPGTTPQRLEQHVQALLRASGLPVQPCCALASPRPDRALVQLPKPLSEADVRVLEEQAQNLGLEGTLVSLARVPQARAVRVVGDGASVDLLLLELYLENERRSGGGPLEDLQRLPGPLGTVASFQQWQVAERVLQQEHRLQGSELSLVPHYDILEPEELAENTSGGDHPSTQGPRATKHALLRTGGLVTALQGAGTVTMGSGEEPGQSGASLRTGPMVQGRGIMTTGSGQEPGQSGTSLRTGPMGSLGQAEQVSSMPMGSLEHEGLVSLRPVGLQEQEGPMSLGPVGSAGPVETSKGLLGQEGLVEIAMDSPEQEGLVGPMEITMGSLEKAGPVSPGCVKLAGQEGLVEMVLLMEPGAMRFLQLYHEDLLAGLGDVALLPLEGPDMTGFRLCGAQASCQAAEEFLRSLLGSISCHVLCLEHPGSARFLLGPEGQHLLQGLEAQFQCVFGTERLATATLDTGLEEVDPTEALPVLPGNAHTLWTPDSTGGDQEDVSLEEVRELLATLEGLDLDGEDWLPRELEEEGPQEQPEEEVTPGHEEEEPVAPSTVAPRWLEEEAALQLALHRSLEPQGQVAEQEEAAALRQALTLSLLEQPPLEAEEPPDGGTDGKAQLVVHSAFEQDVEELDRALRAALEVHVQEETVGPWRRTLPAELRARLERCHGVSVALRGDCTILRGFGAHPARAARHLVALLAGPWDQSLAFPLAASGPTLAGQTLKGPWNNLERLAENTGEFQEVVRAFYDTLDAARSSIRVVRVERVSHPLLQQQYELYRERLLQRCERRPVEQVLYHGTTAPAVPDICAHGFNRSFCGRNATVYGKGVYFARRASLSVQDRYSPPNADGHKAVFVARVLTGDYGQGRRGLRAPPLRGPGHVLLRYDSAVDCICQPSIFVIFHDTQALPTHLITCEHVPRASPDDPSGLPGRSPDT

PARP2 = target: T3, PARP2 (Homo sapiens, UniProt Q9UGN5); format: biochemical; details: NAD+ consumption assay; > less than 50% inhibition at highest concentration, >> no inhibition
T3 construct: made in house
Description: as §1

[1] = read-out: PARP15 IC50, Tables 1-3 assay, > less than 50% inhibition, >> no inhibition at reported concentration, * value limited by protein concentration
[2] = PARP10 IC50, Tables 1-3 assay, > less than 50% inhibition, >> no inhibition at reported concentration, * value limited by protein concentration
[3] = Tables 1-3 assay, > less than 50% inhibition, >> no inhibition at reported concentration, * value limited by protein concentration, read-out: PARP10 IC50

| SMILES | IC50 (PARP15; [1]) [µM] | IC50 (PARP10; [3]) [µM] | other results |
| --- | --- | --- | --- |
| CC(C)c1ccc2c(c1)sc1nncn12 [Compound 8, 7-Isopropyl[1,2,4]triazolo[3,4-b][1,3]benzothiazole] | 3.9 | – | PARP10 pIC50 ± SEM (PARP10; Tables 1-3 assay): (5.26 ± 0.08) |
| CCc1ccc2c(c1)sc1nncn12 [Compound 7, 7-Ethyl[1,2,4]triazolo[3,4-b][1,3]benzothiazole] | 2 | – | PARP10 pIC50 ± SEM (PARP10; Tables 1-3 assay): (5.31 ± 0.10) |
| Cc1ccc2c(c1)sc1nncn12 [Compound 105] | – | – | IC50 (PARP15): > 10 µM; IC50 (PARP10; [2]): > 10 µM |
| COc1cccc2sc3nncn3c12 [Compound 15, 5-Methoxy[1,2,4]triazolo[3,4-b][1,3]benzothiazole] | – | 5.1 | PARP10 pIC50 ± SEM (PARP10; Tables 1-3 assay): (5.30 ± 0.15) |
| Cc1ccc(F)c2c1sc1nncn12 [Compound 4, 5-Fluoro-8-methyl[1,2,4]triazolo[3,4-b][1,3]benzothiazole] | 6.9 | 5 | – |
| Cc1ccc2c(c1)sc1nnc(O)n12 [Compound 19] | – | 5.4 | – |
| Clc1ccc2c(c1)sc1nncn12 [Compound 9] | 7 | – | IC50 (PARP10; [2]): > 10 µM |
| COc1ccc(OC)c2c1sc1nncn12 [Compound 13, 5,8-Dimethoxy[1,2,4]triazolo[3,4-b][1,3]benzothiazole] | 1.6 | – | IC50 (PARP10; Tables 1-3 assay, read-out: PARP10 IC50): 0.49 µM |
| Oc1cccc2c1sc1nncn12 [Compound 18, [1,2,4]Triazolo[3,4-b][1,3]benzothiazol-8-ol] | – | – | PARP15 pIC50 ± SEM (PARP15; Tables 1-3 assay): (5.33 ± 0.11); IC50 (PARP10; [2]): > 10 µM |
| Cc1ccc2c(c1)sc1nnc(/N=C\c3ccc(Cl)cc3)n12 [Compound 25, N-[(1Z)-(4-chlorophenyl)methylene]-7-methyl[1,2,4]triazolo[3,4-b][1,3]benzothiazol-3-amine] | 7.9 | – | IC50 (PARP10; [2]): > 10 µM |
| COc1ccc(OC)c2c1sc1nnc(S)n12 [Compound 26, 5,8-Dimethoxy[1,2,4]triazolo[3,4-b][1,3]benzothiazole-3(2H)-thione] | – | – | IC50 (PARP15): > 10 µM; IC50 (PARP10; [2]): > 10 µM |
| COc1ccc2c(c1)sc1nncn12 [Compound 12] | 4 | 6.5 | – |
| Cc1ccc2c(c1)sc1nnc(S)n12 [Compound 20] | – | 1.5 | PARP10 pIC50 ± SEM (PARP10; Tables 1-3 assay): (5.81 ± 0.10) |
| Cc1cc(C)c2c(c1)sc1nncn12 [Compound 2] | – | 1.7 | PARP15 pIC50 ± SEM (PARP15; Tables 1-3 assay): (6.11 ± 0.10) |
| Cc1ccc2c(c1)sc1nnc(NCc3ccc(Cl)cc3)n12 [Compound 24, N-(4-chlorobenzyl)-7-methyl[1,2,4]triazolo[3,4-b][1,3]benzothiazol-3-amine] | – | – | IC50 (PARP15): > 10 µM; IC50 (PARP10; [2]): > 10 µM |
| Cc1ccc2sc3nncn3c2c1 [Compound 5, 6-Methyl[1,2,4]triazolo[3,4-b][1,3]benzothiazole] | 6.6 | – | – |
| Oc1ccc(O)c2c1sc1nncn12 [Compound 17, [1,2,4]Triazolo[3,4-b][1,3]benzothiazol-5,8-diol] | 0.29 | 0.32 | PARP10 pIC50 ± SEM (PARP10; Tables 1-3 assay): (6.50 ± 0.04) |
| COc1cccc2c1sc1nncn12 [Compound 14, 8-Methoxy[1,2,4]triazolo[3,4-b][1,3]benzothiazole] | 1.2 | 1.9 | PARP15 pIC50 ± SEM (PARP15; Tables 1-3 assay): (5.93 ± 0.16); PARP10 pIC50 ± SEM (PARP10; Tables 1-3 assay): (5.71 ± 0.04) |
| CSc1nnc2sc3cc(C)ccc3n12 [Compound 21, 7-Methyl-3-(methylthio)[1,2,4]triazolo[3,4-b][1,3]benzothiazole] | – | 3.7 | IC50 (PARP15): > 10 µM; PARP10 pIC50 ± SEM (PARP10; Tables 1-3 assay): 5.45 ± 0.54 |
| Cc1cccc2c1sc1nncn12 [Compound 6, 8-Methyl[1,2,4]triazolo[3,4-b][1,3]benzothiazole] | 7.1 | 3.4 | – |
| COc1ccc2sc3nncn3c2c1 [Compound 11, 6-Methoxy[1,2,4]triazolo[3,4-b][1,3]benzothiazole] | 7.1 | 1.8 | – |
| Cc1ccc2c(c1)sc1nncn12 [Compound 1] | 3.2 | 3.2 | – |
| Cc1ccc2c(c1)sc1nnc(SCc3ccc(Cl)cc3)n12 [Compound 23, 3-[(4-Chlorobenzyl)thio]-7-methyl[1,2,4]triazolo[3,4-b][1,3]benzothiazole] | – | – | IC50 (PARP15): > 10 µM; IC50 (PARP10; [2]): > 10 µM |
| COc1ccc(OC)c2c1SC1=NNC(SC)N12 (stereo not drawn) [Compound 27, 5,8-Dimethoxy-3-(methylthio)-2,3-dihydro[1,2,4]triazolo[3,4-b][1,3]benzothiazole] | – | – | IC50 (PARP2): 8.4 µM |
| COc1cc(OC)c2sc3nncn3c2c1 [Compound 16, 6,8-Dimethoxy[1,2,4]triazolo[3,4-b][1,3]benzothiazole] | 1.6 | 1.1 | – |
